Only a part is listed here, and it is no random draw. Inconclusive results are not listed. Active and inactive are the calls of the source. Calls come from the whole dose curve; as a rule, active = well fitted inhibition curve with a large enough effect; inconclusive = small, poorly fitted or top-dose-only effect; inactive = no such curve, though single readings can be large or run the other way.
% is set by controls: 0 for no effect and ±100 for the full control effect.

Protein sequences, listed by entry. Tags and fused reporters are not part of them.
UniProt O94782, whole entry, looked up: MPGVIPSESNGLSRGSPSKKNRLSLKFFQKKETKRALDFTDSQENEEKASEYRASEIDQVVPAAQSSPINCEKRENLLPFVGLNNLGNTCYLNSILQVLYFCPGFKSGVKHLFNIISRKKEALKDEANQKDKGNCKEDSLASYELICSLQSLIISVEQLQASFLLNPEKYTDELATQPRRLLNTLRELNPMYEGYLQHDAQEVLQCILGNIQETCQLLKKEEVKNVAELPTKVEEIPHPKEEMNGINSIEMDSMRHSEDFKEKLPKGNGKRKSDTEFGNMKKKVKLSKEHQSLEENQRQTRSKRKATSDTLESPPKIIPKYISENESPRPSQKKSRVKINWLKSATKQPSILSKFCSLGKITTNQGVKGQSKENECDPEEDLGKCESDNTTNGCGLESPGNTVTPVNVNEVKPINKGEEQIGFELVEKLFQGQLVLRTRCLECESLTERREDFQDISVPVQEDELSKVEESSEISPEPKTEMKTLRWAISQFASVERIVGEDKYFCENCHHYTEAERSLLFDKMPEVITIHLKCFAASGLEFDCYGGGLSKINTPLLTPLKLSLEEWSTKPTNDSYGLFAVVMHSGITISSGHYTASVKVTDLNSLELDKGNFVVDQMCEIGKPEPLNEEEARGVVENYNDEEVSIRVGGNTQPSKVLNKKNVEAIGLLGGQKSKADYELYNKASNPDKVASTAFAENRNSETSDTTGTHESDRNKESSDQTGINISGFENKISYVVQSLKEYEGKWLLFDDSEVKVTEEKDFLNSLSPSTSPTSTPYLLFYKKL

The experiment concerns the target Ubiquitin carboxyl-terminal hydrolase 1 (Homo sapiens) (UniProt O94782). Kind of experiment: Inhibitors of USP1/UAF1: Primary Screen. Note: nearly all actives have a fitted effect of over 60% in size. The settings on record: recombinant USP1/UAF1, Ub-Rhodamine cleavage fluorescence; at 57.1 µM (top of the series). From the text: Deubiquitinating enzymes (DUBs) are a class of enzymes that can cleave isopeptide bond formed between the C-terminal carboxylate of ubiquitin and a lysine side-chain amino group on the target protein. Among them, ubiquitin specific proteases (USPs) constitute the largest DUB family. Human USPs are emerging as promising targets for pharmacological intervention because of their connection to a number of human diseases, including prostate, colon and breast cancer (1, 2), pediatric acute lymphoblastic leukemia (3), and familial cylindromatosis (4). The advantage of inhibiting USPs lies in the potential specificity of therapeutic intervention that can lead to better efficacy and reduce nonspecific side effects. In a collaboration between the University of Delaware and the NIH Chemical Genomics Center, a high-throughput screen assay was developed to screen for USP1/UAF1 inhibitors. This miniaturized assay has a fluorescent read-out and is used to screen the NIH Molecular Libraries Small Molecule Repository (MLSMR) in order to identify a small molecule that inhibits USP1. NIH Chemical Genomics Center [NCGC] NIH Molecular Libraries Probe Centers Network [MLPCN] MLPCN Grant: DA030552 Assay Submitter (PI): Zhihao Zhuang, University of Delaware 1. Priolo, C., et al. (2006) The isopeptidase USP2a protects human prostate cancer from apoptosis. Cancer Res 66, 8625-8632 2. Popov, N., et al. (2007) The ubiquitin-specific protease USP28 is required for MYC stability. Nat Cell Biol 9, 765-774 3. De Pitta, C., et al. (2005) A leukemia-enriched cDNA microarray platform identifies new transcripts with relevance to the biology of pediatric acute lymphoblastic leukemia. Haematologica 90, 890-898 4. Kovalenko, A., et al. (2003) The tumour suppressor CYLD negatively regulates NF-kappaB signalling by deubiquitination. Nature 424, 801-805
3 microliters of reagents (buffer in columns 3 and 4 as negative control and 1nM USP1/UAF1 complex in columns 1, 2, and 5-48) are dispensed into Greiner black solid bottom 1536-well assay plates. Compounds are then transferred via Kalypsys pin tool equipped with 1536-pin array (10nl slotted pins, V&P Scientific, San Diego, CA). Following an incubation step of 15 min at room temperature, 1ul of Ub-Rho substrate (150nM final concentration) is added to initiate the reaction. The plates are immediately centrifuged at 1000 rpm for 15 seconds, and subsequently transferred to a ViewLux high-throughput CCD imager (PerkinElmer) wherein kinetic measurements of fluorescence are acquired using 480 nm excitation/540 nm emission filter set (6 reads every 60 seconds, see Table 1). All reagents are diluted in an assay buffer consisting of 50mM HEPES (pH 7.8), 0.5mM EDTA, 0.1 mg/ml BSA, 1mM TCEP, and 0.01% Tween-20.
Consider `Cc1ccc(C(=O)NCC2(N3CCCCC3)CCCCC2)o1`, for which the activity change, negative = inhibition was inactive: -4.52%.

In the case of `Fc1ccccc1NC1CCN(Cc2ccccc2)CC1`, the activity change, negative = inhibition is inactive: 6.53%. With `Cc1ccc(NC2(C#N)CCN(Cc3ccccc3)CC2)cc1`, the activity change, negative = inhibition is inactive: 1.51%. On to `CC(=O)N(c1ccccc1)C1CCNCC1`, for which the activity change, negative = inhibition was inactive: -6.31%. For the compound `CN(C)C1(CNC(=O)c2ccc(C(C)(C)C)cc2)CCCCC1`, the activity change, negative = inhibition is inactive: -13.2%.

On to `COc1cc(OC)cc(C(=O)NCC2(N3CCCCC3)CCCCC2)c1`, for which the activity change, negative = inhibition is inactive: -2.62%. The value for `Cc1ccccc1C(=O)NCC1(N(C)C)CCCCC1` was inactive: -23.5%; that for `CC(C)(C)c1ccc(C(=O)NCC2(N3CCOCC3)CCCCC2)cc1` was inactive: -19%. `O=C(NCC1(N2CCCCC2)CCCCC1)c1ccco1`: the activity change, negative = inhibition was inactive: -15.9%. For the compound `Cn1c(=O)[nH]cc(N(CCCl)CCCl)c1=O`, the activity change, negative = inhibition is inactive: -13.5%. As for `CN(C)c1ccc(C(=O)NCC2(N3CCCCC3)CCCCC2)cc1`, the activity change, negative = inhibition was inactive: -0.0459%. For the compound `Cc1ccccc1NC1(C#N)CCN(Cc2ccccc2)CC1`, the activity change, negative = inhibition was inactive: -11.5%. Consider `CCN1CCC(Nc2cccc(F)c2)CC1`, for which the activity change, negative = inhibition was inactive: -16%.

Turning to `CC(C)(C)OC(=O)N1CCC(Nc2ccccc2)CC1`, the activity change, negative = inhibition is inactive: -12.5%. On to `O=C(O)C1(Nc2ccccc2)CCN(Cc2ccccc2)CC1`, for which the activity change, negative = inhibition is inactive: -21.5%. As for `CCCOc1ccc(C(=O)NCC2(N(C)C)CCCCC2)cc1`, the activity change, negative = inhibition is inactive: -24.6%. For `CCOc1ncccc1C(=O)NCC1(N2CCOCC2)CCCCC1`, the activity change, negative = inhibition is inactive: -12%. `CN1CCC(Nc2ccc(F)c(Cl)c2)CC1`: the activity change, negative = inhibition was inactive: -26.8%. For `CN1CCC(Nc2ccc(Cl)cc2)CC1`, the activity change, negative = inhibition was inactive: -16.2%.

Turning to `COc1cccc(C(=O)N(c2cc(C)cc(C)c2)C2CCN(C(=O)OC(C)(C)C)CC2)c1`, the activity change, negative = inhibition is inactive: -9.66%. With `COc1cc(C(=O)NCC2(N3CCOCC3)CCCCC2)cc(OC)c1OC`, the activity change, negative = inhibition is inactive: -20.7%. Regarding `COc1cc(OC)cc(C(=O)NCC2(N3CCOCC3)CCCCC2)c1`, the activity change, negative = inhibition is inactive: -8%. Consider `CCC(CO)(C(=O)OC1CN2CCC1CC2)c1ccccc1` (centres undefined), for which the activity change, negative = inhibition was inactive: -0.933%. The figure for `COc1ccc(C(=O)NCC2(N3CCOCC3)CCCCC2)cc1OC` is inactive: 10.3%; for `COc1cc(C(=O)NCC2(N3CCOCC3)CCCCC2)cc(OC)c1C` it is inactive: -14.6%. Take `O=C(NCC1(N2CCOCC2)CCCCC1)c1cc(Br)ccc1Cl`: the activity change, negative = inhibition is inactive: -21.1%. Regarding `O=C(OC1CN2CCC1CC2)C1c2ccccc2C=Cc2ccccc21` (centres undefined), the activity change, negative = inhibition is inactive: -14.4%. The figure for `CCc1cc(C(=O)NCC2(N3CCCCC3)CCCCC2)sc1C` is inactive: -15.7%; for `O=C(O)c1cccc(Nc2c([N+](=O)[O-])cc([N+](=O)[O-])cc2[N+](=O)[O-])c1` it is inactive: -11%.

The values are drawn from PubChem BioAssay AID743255 (National Center for Advancing Translational Sciences (NCATS), 2014).
